From US10613180B2, “Methods and systems of assessing tissue vascular permeability using non-labeled dextran” (priority 2014, dated 2020)

Tested on: tumor
Details: mouse, in vivo

dextran-FITC [reference compound]
extravasation of dextran in tumor: extravasated and spread out in the majority of tumor parenchyma
